The values that follow are results of earlier work, collected in US20090061024A1, “COMPOSITIONS AND METHODS EMPLOYING NMDA ANTAGONISTS FOR ACHIEVING AN ANESTHETIC-SPARING EFFECT” (Wyeth, priority 2007, published 2009).

Sequences of proteins named here, by UniProt entry; tags and fusion partners are left off. Residues count along the entry.
UniProt Q00959, 20-1464 limits assumed: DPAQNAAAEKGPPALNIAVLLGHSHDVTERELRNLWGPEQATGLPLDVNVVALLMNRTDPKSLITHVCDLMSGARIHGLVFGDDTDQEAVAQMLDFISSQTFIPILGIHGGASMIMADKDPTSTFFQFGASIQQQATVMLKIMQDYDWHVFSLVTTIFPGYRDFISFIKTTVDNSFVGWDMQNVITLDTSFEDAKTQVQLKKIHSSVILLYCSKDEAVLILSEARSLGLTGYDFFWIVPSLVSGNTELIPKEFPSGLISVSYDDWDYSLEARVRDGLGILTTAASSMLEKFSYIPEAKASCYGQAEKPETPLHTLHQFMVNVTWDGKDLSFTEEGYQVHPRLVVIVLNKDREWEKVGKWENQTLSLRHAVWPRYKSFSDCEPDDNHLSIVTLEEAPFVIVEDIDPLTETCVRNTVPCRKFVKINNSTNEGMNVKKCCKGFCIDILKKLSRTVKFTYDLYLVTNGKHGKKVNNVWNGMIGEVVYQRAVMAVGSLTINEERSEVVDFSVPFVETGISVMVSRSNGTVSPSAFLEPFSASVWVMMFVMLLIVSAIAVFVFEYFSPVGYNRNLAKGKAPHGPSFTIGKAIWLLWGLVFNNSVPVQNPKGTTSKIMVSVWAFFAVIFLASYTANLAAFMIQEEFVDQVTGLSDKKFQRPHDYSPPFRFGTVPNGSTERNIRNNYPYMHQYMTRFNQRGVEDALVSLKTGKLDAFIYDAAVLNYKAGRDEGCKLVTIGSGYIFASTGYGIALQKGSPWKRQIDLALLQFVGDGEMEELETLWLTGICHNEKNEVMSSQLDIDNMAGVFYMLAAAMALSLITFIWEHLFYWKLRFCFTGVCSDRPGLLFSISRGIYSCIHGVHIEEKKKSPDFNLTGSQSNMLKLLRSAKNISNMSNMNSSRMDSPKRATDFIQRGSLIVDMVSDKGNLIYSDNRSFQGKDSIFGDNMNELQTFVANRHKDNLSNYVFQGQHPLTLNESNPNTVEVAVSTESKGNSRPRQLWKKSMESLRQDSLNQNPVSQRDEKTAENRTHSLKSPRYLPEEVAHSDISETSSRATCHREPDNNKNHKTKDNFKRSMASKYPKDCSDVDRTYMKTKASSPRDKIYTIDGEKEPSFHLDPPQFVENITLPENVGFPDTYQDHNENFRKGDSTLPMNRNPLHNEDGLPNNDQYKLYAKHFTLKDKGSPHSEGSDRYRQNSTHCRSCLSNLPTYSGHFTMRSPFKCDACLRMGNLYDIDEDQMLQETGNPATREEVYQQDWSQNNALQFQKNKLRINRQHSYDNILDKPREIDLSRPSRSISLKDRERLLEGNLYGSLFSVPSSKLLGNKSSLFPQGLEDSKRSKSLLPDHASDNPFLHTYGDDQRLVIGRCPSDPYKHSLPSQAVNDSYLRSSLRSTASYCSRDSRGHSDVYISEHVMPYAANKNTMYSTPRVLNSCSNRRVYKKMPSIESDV

For data set [1] the following is noted: in vivo; cited from earlier work.
The test system of data set [2] is cingulate and retrosplenial cortices. To be noted: mice and rats; cited from earlier work.
Data set [3] concerns the target rodent NMDA receptors possessing the NR2A subunit (Rattus norvegicus, UniProt Q00959). The following applies: cited from earlier work.

Some results are limits rather than exact numbers.

For the compound `O=c1c2c(c1=O)N(CCP(=O)(O)O)CCCN2` [Perzinfotel, [2-(8,9-dioxo-2,6-diazabicyclo[5.2.0]non-1-(7)-en-2-yl)ethyl]phosphonic acid], the “doses devoid of many PCP-like effects, relative to those effective in an ischemia model” value in data set [1] is on record as 4-10 times. The “effectiveness:vacuolization ratio” value in data set [2] is at most 16. Also, in data set [3], the “selectivity for NMDA receptors possessing the NR2A subunit” value is given as 10 fold.
